Experimental data from ChEMBL document CHEMBL3580663, “C7β-methyl analogues of the orvinols: the discovery of kappa opioid antagonists with nociceptin/orphanin FQ peptide (NOP) receptor partial agonism and low, or zero, efficacy at mu opioid receptors” (2015).

By UniProt entry, the sequences of proteins in these tests, tags left out.
UniProt P33535, whole entry: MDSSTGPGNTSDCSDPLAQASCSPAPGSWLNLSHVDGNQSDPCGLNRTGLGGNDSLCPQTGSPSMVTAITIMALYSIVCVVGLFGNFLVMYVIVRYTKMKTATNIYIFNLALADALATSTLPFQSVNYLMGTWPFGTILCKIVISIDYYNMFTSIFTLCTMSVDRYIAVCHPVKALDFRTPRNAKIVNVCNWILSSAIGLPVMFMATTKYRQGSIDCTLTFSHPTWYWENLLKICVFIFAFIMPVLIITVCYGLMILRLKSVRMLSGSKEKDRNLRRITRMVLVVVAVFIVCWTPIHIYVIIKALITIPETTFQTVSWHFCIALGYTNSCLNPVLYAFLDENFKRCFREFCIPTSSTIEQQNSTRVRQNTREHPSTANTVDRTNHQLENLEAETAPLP

Target: Mu-type opioid receptor (Rattus norvegicus) (UniProt P33535)
Test: Agonist activity at rat mu opioid receptor expressed in rat C6 cell membranes assessed as stimulation of [35S]GTPgammaS binding at 10 uM relative to DAMGO

Row | SMILES | %max
1 | CO[C@]12C=C[C@@]3(C[C@]1(C)[C@H](O)c1ccc(F)cc1)[C@H]1Cc4ccc(O)c5c4[C@@]3(CCN1CC1CC1)[C@H]2O5 | 26%
2 | CO[C@]12CC[C@@]3(C[C@]1(C)[C@H](O)c1cccs1)[C@H]1Cc4ccc(O)c5c4[C@@]3(CCN1CC1CC1)[C@H]2O5 | 10%
3 | CO[C@]12C=C[C@@]3(C[C@]1(C)[C@@H](O)c1ccccc1)[C@H]1Cc4ccc(O)c5c4[C@@]3(CCN1CC1CC1)[C@H]2O5 | 33%
4 | CO[C@]12CC[C@@]3(C[C@]1(C)[C@H](O)c1ccc(C)cc1)[C@H]1Cc4ccc(O)c5c4[C@@]3(CCN1CC1CC1)[C@H]2O5 | 14%
5 | CO[C@]12C=C[C@@]3(C[C@]1(C)[C@@H](O)c1cccc(C)c1)[C@H]1Cc4ccc(O)c5c4[C@@]3(CCN1CC1CC1)[C@H]2O5 | 40%
6 | CCCSc1ccc([C@@H](O)[C@@]2(C)C[C@@]34C=C[C@]2(OC)[C@@H]2Oc5c(O)ccc6c5[C@@]23CCN(CC2CC2)[C@@H]4C6)cc1 | 49%
